Test results taken from PubChem BioAssay AID2549 (National Center for Advancing Translational Sciences (NCATS), 2010).
The list shows a part of the results, in another mix than the full data. Some results for these compounds are left out of this collection, so the calls shown say nothing about other tests. The source made the active and inactive calls. Calls follow the shape of the dose curve; as a rule, active = well fitted inhibition curve with a large enough effect; inconclusive = small, poorly fitted or top-dose-only effect; inactive = flat fitted curve, though single readings scatter.
Also: nearly all actives have a fitted effect of over 30% in size.

By UniProt entry, the sequences of proteins in these tests, tags left out.
UniProt P46063, whole entry: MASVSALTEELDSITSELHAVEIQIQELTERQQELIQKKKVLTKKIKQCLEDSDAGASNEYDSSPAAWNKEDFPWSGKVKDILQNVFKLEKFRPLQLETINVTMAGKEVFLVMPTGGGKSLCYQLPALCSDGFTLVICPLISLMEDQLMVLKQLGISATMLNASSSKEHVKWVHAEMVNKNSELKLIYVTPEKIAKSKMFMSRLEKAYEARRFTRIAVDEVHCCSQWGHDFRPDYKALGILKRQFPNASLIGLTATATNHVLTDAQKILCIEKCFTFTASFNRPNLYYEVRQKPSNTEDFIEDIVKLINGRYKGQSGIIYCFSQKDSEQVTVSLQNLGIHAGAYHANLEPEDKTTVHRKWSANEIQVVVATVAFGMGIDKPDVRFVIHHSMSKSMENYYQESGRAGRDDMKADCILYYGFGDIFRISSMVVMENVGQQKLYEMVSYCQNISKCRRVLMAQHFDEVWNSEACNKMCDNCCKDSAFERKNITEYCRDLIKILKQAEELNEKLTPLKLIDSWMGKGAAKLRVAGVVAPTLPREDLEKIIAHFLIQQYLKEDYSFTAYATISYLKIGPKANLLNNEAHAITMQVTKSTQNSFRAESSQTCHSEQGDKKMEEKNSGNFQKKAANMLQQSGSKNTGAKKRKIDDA

These molecules were tested against ATP-dependent DNA helicase Q1 (Homo sapiens) (UniProt P46063) (assay: qHTS Assay for Inhibitors of RecQ-Like Dna Helicase 1 (RECQ1)). Settings: RECQ1 DNA unwinding, red fluorescence kinetic read; activity, negative = inhibition: at 57.3 µM (top of the series).
From the text: Survival of cells and the faithful propagation of the genome depend on elaborate mechanisms of detecting and repairing DNA damage. Treatment of advanced cancer relies on radiation therapy or chemotherapy, which kill cancer cells by causing extensive DNA damage. It is often found, that cancer cells develop resistance to therapy through enhanced activity of DNA repair functions; this has led to an increased interest in developing drugs that interfere with DNA repair, which could sensitize cancer cells to conventional therapy.
This validation qHTS assay pertains to human RECQ1, which is important in resolving abnormal DNA structures formed during replication or homologous recombination. Shutting down the expression of RECQ1 leads to chromosomal instability and higher radiation sensitivity in cultured cells.
The validation assay was a fluorescence quenching based kinetic qHTS for RECQ1 Helicase DNA unwinding. The activity was measured as ATP-dependent separation of a 20-bp DNA duplex extended by 30-nt single-stranded tails (forked duplex). The forked DNA substrate was tagged with rhodamine fluorophore (carboxytetramethyl rhodamine, TAMRA) and BHQ-2 (Black Hole Quencher 2) dark quencher. Strand separation results in an increase in the fluorescence of TAMRA (excitation 525 nm, emission 598 nm). This substrate construct operates in a red-shifted region where very few compound library members have been noted to fluoresce (PubChem AIDs 593 and 594). An additional feature of the assay is the inclusion of 2.5 ug/ml poly (dIdC), to reduce interference by compounds such as DNA intercalators, a major source of false inhibitors.
Opher Gileadi, Structural Genomics Consortium, University of Oxford
Screening Center PI: Austin, C.P.
Screening Center: NIH Chemical Genomics Center [NCGC]
Three uL of reaction buffer (25 mM Tris-HCl (pH 8.0), 5 mM NaCl, 2 mM MgCl2, 1mM DTT, 0.01% Tween- 20, and 2.5 ug/ml poly(dI-dC), including enzyme (50 nM RECQ1T1), were dispensed into a 1536-well Greiner black assay plate via solenoid-valve based nanoliter dispensers. Compounds (23 nl each in columns 5-48) and control (23 nl each in column 2 as dose-response) were transferred via a Kalypsys pintool equipped with a 1536-pin array. The plates were incubated for 15 min at room temperature, and then 1 ul of substrates (200 nM DNA and 2 mM ATP, final concentrations) was added to start the reaction. The plate was transferred into a ViewLux high-throughput CCD imager where the reaction progress was measured in a discontinuous kinetic mode (two reads spaced 2 hours apart, with intermediate room temperature incubation of the covered assay plate) by using standard red-fluorescence optics (excitation filter 525 nm, emission filter 598 nm). Enzyme-free and vehicle (DMSO) controls were included for signal normalization.
In the case of CN(C)c1cccc(C(=O)NCC2(N(C)C)CCCCC2)c1, the activity, negative = inhibition is reported as inactive: -8.63%.
COc1ccc(Br)c(C(=O)NCC2(N3CCCCC3)CCCCC2)c1 was tested, and the activity, negative = inhibition was “inactive”.
With O=C(OC1CN2CCC1CC2)C(CO)(c1ccccc1)c1ccccc1 (configuration not stated) the activity, negative = inhibition was inactive: -8.13%.
COc1cccc(C(=O)NCC2(N3CCCCC3)CCCCC2)c1 was tested, and the activity, negative = inhibition was inactive: -4.14%.
With CCN1CCCC(OC(=O)C2(O)c3ccccc3C=Cc3ccccc32)C1 (configuration not stated) the activity, negative = inhibition was inactive: -6.28%.
With C=CCN1CCN(CCOC(=O)C(O)(c2ccccc2)c2ccccc2)CC1 the activity, negative = inhibition was “inactive”.
With CCCCC/C=C\C/C=C\C/C=C\C/C=C\CCCCP(=O)(F)OC (configuration not stated) the activity, negative = inhibition was “inactive”.
For CN(C)C1CCCC1OC(=O)C(O)(c1ccccc1)c1ccccc1 (configuration not stated), the activity, negative = inhibition was inactive: -4.99%.
Cc1ccccc1C(=O)NCC1(N2CCCCC2)CCCCC1 was tested, and the activity, negative = inhibition was inactive: -0.201%.
CC(C)N1C(=O)CC2(CCN(CCOC(=O)C(O)(c3ccccc3)c3ccccc3)CC2)C1=O was tested, and the activity, negative = inhibition was inactive: -9.52%.
In the case of CCN(CC)CC(C)C(C)OC(=O)C(O)(c1ccccc1)c1ccccc1 (configuration not stated), the activity, negative = inhibition is reported as inactive: 3.04%.
O=C(NCC1(N2CCCCC2)CCCCC1)c1cc([N+](=O)[O-])ccc1Cl was tested, and the activity, negative = inhibition was inactive: -2%.
